Consider 29 compounds from patent US9242970B2 (ACTELION PHARMACEUTICALS LTD., priority 2010, dated 2016).

The chains behind the UniProt entries cited, without tags or fusion partners.
UniProt O43613, whole entry: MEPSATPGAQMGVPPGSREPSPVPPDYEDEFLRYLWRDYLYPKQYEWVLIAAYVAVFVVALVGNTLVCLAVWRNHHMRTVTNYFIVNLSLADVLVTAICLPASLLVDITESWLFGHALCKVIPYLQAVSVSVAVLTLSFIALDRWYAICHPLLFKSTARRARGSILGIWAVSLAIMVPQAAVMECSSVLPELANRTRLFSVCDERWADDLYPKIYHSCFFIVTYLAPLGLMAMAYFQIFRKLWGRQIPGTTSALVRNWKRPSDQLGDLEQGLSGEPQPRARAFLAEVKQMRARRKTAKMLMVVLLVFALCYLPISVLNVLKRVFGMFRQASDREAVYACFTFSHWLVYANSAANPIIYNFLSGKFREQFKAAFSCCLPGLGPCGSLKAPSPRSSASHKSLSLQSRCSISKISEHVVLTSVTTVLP
UniProt O43614, whole entry: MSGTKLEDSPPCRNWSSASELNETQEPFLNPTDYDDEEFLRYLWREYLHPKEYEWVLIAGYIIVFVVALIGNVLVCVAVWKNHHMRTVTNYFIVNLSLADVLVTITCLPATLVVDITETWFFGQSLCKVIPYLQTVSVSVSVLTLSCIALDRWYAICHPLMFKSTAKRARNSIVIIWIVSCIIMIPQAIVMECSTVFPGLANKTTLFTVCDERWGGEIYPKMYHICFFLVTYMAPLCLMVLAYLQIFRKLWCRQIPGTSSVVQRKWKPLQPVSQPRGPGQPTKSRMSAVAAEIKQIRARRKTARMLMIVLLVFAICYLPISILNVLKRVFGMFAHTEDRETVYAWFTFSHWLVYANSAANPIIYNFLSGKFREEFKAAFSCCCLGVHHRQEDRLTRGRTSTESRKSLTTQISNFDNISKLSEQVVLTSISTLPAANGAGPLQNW

pIC50: −log10 of the molar value.

The target in one assay is human orexin-1 receptor (Homo sapiens (Human), UniProt O43613). The assay is described as follows: In vitro assay: intracellular calcium measurements (FLIPR), antagonistic activity. The assay is classed as cell-based. The note with it: CHO cells, 3 nM orexin-A, compound incubation 120 min; marked values are geometric means of n = 2-6; read-out: IC50 OX1. As for the experimental part:
(§1) In Vitro Assay: Intracellular Calcium Measurements:
(§2) Chinese hamster ovary (CHO) cells expressing the human orexin-1 receptor and the human orexin-2 receptor, respectively, are grown in culture medium (Ham F-12 with L-Glutamine) containing 300 µg/ml G418, 100 U/ml penicillin, 100 µg/ml streptomycin and 10% heat inactivated fetal calf serum (FCS). The cells are seeded at 20,000 cells/well into 384-well black clear bottom sterile plates (Greiner). The seeded plates are incubated overnight at 37° C. in 5% CO2.
(§3) Fluorescence is measured for each well at 1 second intervals, and the height of each fluorescence peak is compared to the height of the fluorescence peak induced by 3 nM orexin-A with vehicle in place of antagonist. […] Optimized conditions were achieved by adjustment of pipetting speed and cell splitting regime. The calculated IC50 values may fluctuate depending on the daily cellular assay performance. Fluctuations of this kind are known to those skilled in the art.
On the technique in general: Calcium flux is commonly read through the fluorescence of an indicator in the cells.
Take `COc1ccc(F)c(OC)c1[C@@H]1C[C@@H](O)C(=O)N1Cc1ccc(OC(F)(F)F)cc1` (racemic) [Example 311, rac-(3R*,5S*)-5-(3-fluoro-2,6-dimethoxyphenyl)-3-hydroxy-1-(4-(trifluoromethoxy)benzyl)pyrrolidin-2-one]: the pIC50 (in general, −log10 of the IC50, conventionally taken in molar units) was 5.86.

On to `COc1c(F)ccc(F)c1[C@@H]1C[C@H](F)C(=O)N1Cc1ccc(OC(F)(F)F)cc1` (racemic) [Example 321, rac-(3S*,5S*)-5-(3,6-difluoro-2-methoxyphenyl)-3-fluoro-1-(4-(trifluoromethoxy)benzyl)pyrrolidin-2-one], for which the pIC50 is 5.84.

A further assay concerns the target human orexin-2 receptor (Homo sapiens (Human), UniProt O43614). The description is as above. It counts as cell-based. The note with it: CHO cells, 3 nM orexin-A, compound incubation 120 min; marked values are geometric means of n = 2-6; read-out: IC50 OX2. As for the experimental part: as §1, §2, §3
Regarding `COc1cccc(Cl)c1[C@@H]1C[C@@H](O)C(=O)N1Cc1ccc(OC(F)(F)F)cc1` (racemic) [Example 294, rac-(3R*,5S*)-5-(2-chloro-6-methoxyphenyl)-3-hydroxy-1-(4-(trifluoromethoxy)benzyl)pyrrolidin-2-one], the pIC50 is 6.53.

For the compound `CC(C)Oc1cccc(F)c1[C@@H]1C[C@H](Cl)C(=O)N1Cc1ccc(OC(F)(F)F)cc1` (racemic) [Example 409, rac-(3S*,5S*)-3-chloro-5-(2-fluoro-6-isopropoxyphenyl)-1-(4-(trifluoromethoxy)benzyl)pyrrolidin-2-one], the pIC50 was 7.60.

Turning to `CCOc1cc(F)ccc1[C@@H]1C[C@H](F)C(=O)N1Cc1ccc(OC(F)(F)F)cc1` (racemic) [Example 344, rac-(3S*,5S*)-5-(2-ethoxy-4-fluorophenyl)-3-fluoro-1-(4-(trifluoromethoxy)benzyl)pyrrolidin-2-one], the pIC50 was 6.41.

As to `COc1c(F)ccc(F)c1[C@@H]1C[C@@H](Cl)C(=O)N1Cc1ccc(OC(F)(F)F)cc1` (racemic) [Example 317, rac-(3R*,5S*)-3-chloro-5-(3,6-difluoro-2-methoxyphenyl)-1-(4-(trifluoromethoxy)benzyl)pyrrolidin-2-one], the negative-log IC50 (pIC50) was 5.85.

With `COc1cccc(C)c1[C@@H]1C[C@H](F)C(=O)N1Cc1ccc(OC(F)(F)F)cc1` (racemic) [Example 325, rac-(3S*,5S*)-3-fluoro-5-(2-methoxy-6-methylphenyl)-1-(4-(trifluoromethoxy)benzyl)pyrrolidin-2-one], the pIC50 was 6.75.

Turning to `CCOc1c(F)cccc1[C@@H]1C[C@@H](Cl)C(=O)N1Cc1ccc(OC(F)(F)F)cc1` (racemic) [Example 327, rac-(3R*,5S*)-3-chloro-5-(2-ethoxy-3-fluorophenyl)-1-(4-(trifluoromethoxy)benzyl)pyrrolidin-2-one], the pIC50 was 5.75.

On to `CCOc1cccc(F)c1[C@@H]1C[C@H](Cl)C(=O)N1Cc1ccc(OC(F)(F)F)c(Cl)c1` (racemic) [Example 462, rac-(3S*,5S*)-3-chloro-1-(3-chloro-4-(trifluoromethoxy)benzyl)-5-(2-ethoxy-6-fluorophenyl)pyrrolidin-2-one], for which the pIC50 is 7.66.

Turning to `COc1ccc(F)c(OC)c1[C@@H]1C[C@H](Cl)C(=O)N1Cc1ccc(OC(F)(F)F)cc1` (racemic) [Example 330, rac-(3S*,5S*)-3-chloro-5-(3-fluoro-2,6-dimethoxyphenyl)-1-(4-(trifluoromethoxy)benzyl)pyrrolidin-2-one], the pIC50 was 6.71.

With `COc1cccc(F)c1[C@@H]1C[C@@H](O)C(=O)N1Cc1ccc(OC(F)(F)F)cc1` (racemic) [Example 293, rac-(3R*,5S*)-5-(2-fluoro-6-methoxyphenyl)-3-hydroxy-1-(4-(trifluoromethoxy)benzyl)pyrrolidin-2-one], the pIC50 was 6.47.

Take `COc1cccc(OC)c1[C@@H]1C[C@@H](F)C(=O)N1Cc1ccc2oc3ccccc3c2c1` (racemic) [Example 368, rac-(3R*,5S*)-1-(dibenzo[b,d]furan-2-ylmethyl)-5-(2,6-dimethoxyphenyl)-3-fluoropyrrolidin-2-one]: the pIC50 is 7.40.

On to `CCOc1c(F)cccc1[C@@H]1C[C@H](Cl)C(=O)N1Cc1ccc(OC(F)(F)F)cc1` (racemic) [Example 329, rac-(3S*,5S*)-3-chloro-5-(2-ethoxy-3-fluorophenyl)-1-(4-(trifluoromethoxy)benzyl)pyrrolidin-2-one], for which the pIC50 was 6.28.

On to `CC(C)Oc1cccc(F)c1[C@@H]1C[C@H](F)C(=O)N1Cc1ccc(OC(F)(F)F)cc1` (racemic) [Example 407, rac-(3S*,5S*)-3-fluoro-5-(2-fluoro-6-isopropoxyphenyl)-1-(4-(trifluoromethoxy)benzyl)pyrrolidin-2-one], for which the pIC50 was 7.96.

In the case of `COc1ccc(F)c(OC)c1[C@@H]1C[C@@H](Cl)C(=O)N1Cc1ccc(OC(F)(F)F)cc1` (racemic) [Example 328, rac-(3R*,5S*)-3-chloro-5-(3-fluoro-2,6-dimethoxyphenyl)-1-(4-(trifluoromethoxy)benzyl)pyrrolidin-2-one], the pIC50 was 5.75.

In the case of `COc1cccc(F)c1[C@@H]1C[C@@H](F)C(=O)N1Cc1ccc2oc3ccccc3c2c1` (racemic) [Example 395, rac-(3R*,5S*)-1-(dibenzo[b,d]furan-2-ylmethyl)-3-fluoro-5-(2-fluoro-6-methoxyphenyl)pyrrolidin-2-one], the pIC50 was 8.15.

As to `COc1cccc(F)c1[C@@H]1C[C@@H](O)C(=O)N1Cc1cccc(OC(F)(F)F)c1` (racemic) [Example 430, rac-(3R*,5S*)-5-(2-fluoro-6-methoxyphenyl)-3-hydroxy-1-(3-(trifluoromethoxy)benzyl)pyrrolidin-2-one], the pIC50 was 6.82.

For `COc1cccc(F)c1[C@@H]1C[C@H](F)C(=O)N1Cc1ccc2oc3ccccc3c2c1` (racemic) [Example 406, rac-(3S*,5S*)-1-(dibenzo[b,d]furan-2-ylmethyl)-3-fluoro-5-(2-fluoro-6-methoxyphenyl)pyrrolidin-2-one], the pIC50 was 8.70.

On to `COc1cccc(OC)c1[C@@H]1C[C@H](F)C(=O)N1Cc1ccc2oc3ccccc3c2c1` (racemic) [Example 367, rac-(3S*,5S*)-1-(dibenzo[b,d]furan-2-ylmethyl)-5-(2,6-dimethoxyphenyl)-3-fluoropyrrolidin-2-one], for which the pIC50 was 9.00.

Turning to `CCOc1cccc(F)c1[C@@H]1C[C@H](F)C(=O)N1Cc1ccc(OC(F)(F)F)c(Cl)c1` (racemic) [Example 461, rac-(3S*,5S*)-1-(3-chloro-4-(trifluoromethoxy)benzyl)-5-(2-ethoxy-6-fluorophenyl)-3-fluoropyrrolidin-2-one], the pIC50 was 8.40.

In the case of `COc1ccc2ccccc2c1[C@@H]1C[C@H](F)C(=O)N1Cc1ccc(OC(F)(F)F)cc1` (racemic) [Example 315, rac-(3S*,5S*)-3-fluoro-5-(2-methoxynaphthalen-1-yl)-1-(4-(trifluoromethoxy)benzyl)pyrrolidin-2-one], the pIC50 is 6.26.

Consider `COc1cccc(F)c1[C@@H]1C[C@H](F)C(=O)N1Cc1cccc(OC(F)(F)F)c1` (racemic) [Example 463, rac-(3S*,5S*)-3-fluoro-5-(2-fluoro-6-methoxyphenyl)-1-(3-(trifluoromethoxy)benzyl)pyrrolidin-2-one], for which the pIC50 is 7.03.

For `CCOc1cccc(Cl)c1[C@@H]1C[C@@H](O)C(=O)N1Cc1ccc(OC(F)(F)F)cc1` (racemic) [Example 427, rac-(3R*,5S*)-5-(2-chloro-6-ethoxyphenyl)-3-hydroxy-1-(4-(trifluoromethoxy)benzyl)pyrrolidin-2-one], the pIC50 is 7.12.

In the case of `COc1c(F)ccc(F)c1[C@@H]1C[C@H](Cl)C(=O)N1Cc1ccc(OC(F)(F)F)cc1` (racemic) [Example 320, rac-(3S*,5S*)-3-chloro-5-(3,6-difluoro-2-methoxyphenyl)-1-(4-(trifluoromethoxy)benzyl)pyrrolidin-2-one], the pIC50 was 6.66.

Staying with this assay, now noted: CHO cells, 3 nM orexin-A, compound incubation time of 10 min; marked values are geometric means of n = 2-6; read-out: IC50 OX2.
On to `COc1cccc(OC)c1[C@@H]1C[C@@H](O)C(=O)N1Cc1ccc(OC(F)(F)F)cc1` (racemic) [Example 258, rac-(3R*,5S*)-5-(2,6-dimethoxyphenyl)-3-hydroxy-1-(4-(trifluoromethoxy)benzyl)pyrrolidin-2-one], for which the pIC50 was 7.23.

As to `COc1cccc(OC)c1[C@@H]1C[C@H](O)C(=O)N1Cc1ccc(OC(F)(F)F)cc1` (racemic) [Example 253, rac-(3S*,5S*)-5-(2,6-dimethoxyphenyl)-3-hydroxy-1-(4-(trifluoromethoxy)benzyl)pyrrolidin-2-one], the pIC50 was 6.17.

With `COc1cccc(OC)c1[C@@H]1C[C@@H](F)C(=O)N1Cc1ccc(OC(F)(F)F)cc1` (racemic) [Example 255, rac-(3R*,5S*)-5-(2,6-dimethoxyphenyl)-3-fluoro-1-(4-(trifluoromethoxy)benzyl)pyrrolidin-2-one], the pIC50 is 6.62.

Consider `COc1cccc(F)c1[C@@H]1C[C@H](O)C(=O)N1Cc1ccc(OC(F)(F)F)cc1` (racemic) [Example 265, rac-(3S*,5S*)-5-(2-fluoro-6-methoxyphenyl)-3-hydroxy-1-(4-(trifluoromethoxy)benzyl)pyrrolidin-2-one], for which the pIC50 is 5.96.

As for `COc1cccc(OC)c1[C@@H]1C[C@H](F)C(=O)N1Cc1ccc(OC(F)(F)F)cc1` (racemic) [Example 260, rac-(3S*,5S*)-5-(2,6-dimethoxyphenyl)-3-fluoro-1-(4-(trifluoromethoxy)benzyl)pyrrolidin-2-one], the pIC50 is 7.72.
